Measured values taken from patent publication US11312701B2, “Formylpyridine derivative having FGFR4 inhibitory activity, preparation method therefor and use thereof” (Abbisko Therapeutics Co., Ltd., priority 2017, dated 2022).

Tested on: Huh7 hepatocellular carcinoma cells
Assay: Cell Titer Glo (CTG) cell proliferation experiment
Assay type: cell-based
Conditions: read-out: Cell activity HuH-7 EC50, HuH-7 cells, 3 days, concentration leading to half maximal growth inhibition

## COCCNc1cc(NC(=O)N(C)c2ccc(CN3CCN(C)CC3=O)c(C=O)n2)ncc1C#N
  EC50: 238 nM
